Measurements: ChEMBL document CHEMBL6182923, “Optimization of 1-Methyl-3-(pyridin-3-yl)-1H-indol Derivatives as ROR1 Inhibitors with Improved Activity and Selectivity” (J Med Chem, 2025)

By UniProt entry, the sequences of proteins in these tests, tags left out. Where a name states a change or a piece, a line headed by the entry shows the natural chain unless it says otherwise.
Platelet-derived growth factor receptor alpha (Homo sapiens), P16234, UniProt P16234, whole entry V561D: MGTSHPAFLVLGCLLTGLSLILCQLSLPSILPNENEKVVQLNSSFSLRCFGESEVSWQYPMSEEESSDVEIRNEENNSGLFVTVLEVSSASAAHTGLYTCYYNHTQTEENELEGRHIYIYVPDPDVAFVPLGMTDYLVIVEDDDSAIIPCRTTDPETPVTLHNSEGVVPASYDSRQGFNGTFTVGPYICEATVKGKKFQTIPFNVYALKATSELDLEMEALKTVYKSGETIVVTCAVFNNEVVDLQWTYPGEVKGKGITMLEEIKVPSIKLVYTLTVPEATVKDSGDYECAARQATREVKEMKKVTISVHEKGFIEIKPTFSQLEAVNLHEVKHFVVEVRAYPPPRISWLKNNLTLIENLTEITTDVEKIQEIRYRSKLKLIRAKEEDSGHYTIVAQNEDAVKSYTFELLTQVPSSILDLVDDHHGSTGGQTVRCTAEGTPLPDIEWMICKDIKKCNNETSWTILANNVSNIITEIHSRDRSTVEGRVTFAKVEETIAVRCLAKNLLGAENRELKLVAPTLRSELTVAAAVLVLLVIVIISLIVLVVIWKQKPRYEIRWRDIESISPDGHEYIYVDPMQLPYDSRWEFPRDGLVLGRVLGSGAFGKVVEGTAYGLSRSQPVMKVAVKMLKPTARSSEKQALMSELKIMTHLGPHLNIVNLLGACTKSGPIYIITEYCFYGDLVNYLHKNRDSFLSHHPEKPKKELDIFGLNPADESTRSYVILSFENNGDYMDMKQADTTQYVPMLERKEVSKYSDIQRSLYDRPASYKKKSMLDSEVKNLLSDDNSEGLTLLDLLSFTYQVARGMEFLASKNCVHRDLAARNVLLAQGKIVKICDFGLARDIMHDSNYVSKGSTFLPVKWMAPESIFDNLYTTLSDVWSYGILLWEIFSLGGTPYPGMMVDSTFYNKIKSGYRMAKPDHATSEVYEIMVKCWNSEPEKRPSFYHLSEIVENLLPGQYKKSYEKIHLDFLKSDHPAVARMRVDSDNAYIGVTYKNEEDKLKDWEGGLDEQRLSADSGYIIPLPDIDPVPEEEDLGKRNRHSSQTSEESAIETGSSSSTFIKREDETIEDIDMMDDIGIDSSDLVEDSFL
UniProt P48729: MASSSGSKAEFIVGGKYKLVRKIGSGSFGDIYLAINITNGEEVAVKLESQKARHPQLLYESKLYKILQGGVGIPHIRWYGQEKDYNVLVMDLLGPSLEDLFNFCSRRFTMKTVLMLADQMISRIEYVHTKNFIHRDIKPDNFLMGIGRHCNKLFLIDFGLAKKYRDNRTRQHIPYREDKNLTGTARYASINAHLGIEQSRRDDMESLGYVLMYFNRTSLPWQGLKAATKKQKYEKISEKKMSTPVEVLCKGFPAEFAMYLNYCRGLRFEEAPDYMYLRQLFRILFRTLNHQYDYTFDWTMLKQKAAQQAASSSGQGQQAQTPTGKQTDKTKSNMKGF
UniProt P09619, whole entry: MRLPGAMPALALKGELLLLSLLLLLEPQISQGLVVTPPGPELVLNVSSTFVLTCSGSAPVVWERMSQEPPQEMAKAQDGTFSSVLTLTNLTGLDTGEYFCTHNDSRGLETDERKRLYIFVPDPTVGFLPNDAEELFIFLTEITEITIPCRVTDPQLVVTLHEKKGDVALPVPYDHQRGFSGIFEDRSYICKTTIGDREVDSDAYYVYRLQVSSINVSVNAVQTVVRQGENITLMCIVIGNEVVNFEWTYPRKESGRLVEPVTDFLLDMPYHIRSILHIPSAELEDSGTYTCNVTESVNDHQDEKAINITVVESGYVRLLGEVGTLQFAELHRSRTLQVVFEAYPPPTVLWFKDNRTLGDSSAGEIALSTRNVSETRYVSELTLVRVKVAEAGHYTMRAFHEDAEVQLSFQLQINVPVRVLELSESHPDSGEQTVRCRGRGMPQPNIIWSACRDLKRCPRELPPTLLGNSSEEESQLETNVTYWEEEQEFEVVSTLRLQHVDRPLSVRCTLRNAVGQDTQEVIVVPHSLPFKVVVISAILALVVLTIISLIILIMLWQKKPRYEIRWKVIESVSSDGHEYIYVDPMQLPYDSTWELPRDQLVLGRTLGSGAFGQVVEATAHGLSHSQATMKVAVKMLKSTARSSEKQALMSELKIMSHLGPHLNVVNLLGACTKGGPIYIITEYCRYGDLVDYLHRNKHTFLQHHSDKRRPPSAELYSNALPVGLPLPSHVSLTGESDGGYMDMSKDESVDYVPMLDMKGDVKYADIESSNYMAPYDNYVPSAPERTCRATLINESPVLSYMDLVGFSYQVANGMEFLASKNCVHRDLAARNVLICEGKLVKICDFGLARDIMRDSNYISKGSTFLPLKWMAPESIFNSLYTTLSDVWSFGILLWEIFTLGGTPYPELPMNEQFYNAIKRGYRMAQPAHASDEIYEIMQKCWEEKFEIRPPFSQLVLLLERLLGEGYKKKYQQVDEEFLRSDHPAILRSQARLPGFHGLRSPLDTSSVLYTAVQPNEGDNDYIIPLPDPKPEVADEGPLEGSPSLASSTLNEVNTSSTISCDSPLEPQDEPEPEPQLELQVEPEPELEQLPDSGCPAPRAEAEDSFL

Columns and labels:
[1] = system: Platelet-derived growth factor receptor alpha (Homo sapiens), P16234 [V561D]; assay: Inhibition of human PDGFR alpha V561D at 1 uM measured after 40 mins in presence of (gamma-33P)-ATP by scintillation counting analysis relative to control
[2] = target: Casein kinase I isoform alpha (Homo sapiens) (UniProt P48729); assay: Inhibition of human CK1alpha at 1 uM measured after 40 mins in presence of (gamma-33P)-ATP by scintillation counting analysis relative to control
[3] = target: T1, Megakaryocyte-associated tyrosine-protein kinase (Homo sapiens) (UniProt P42679); assay: Inhibition of human MATK at 1 uM measured after 40 mins in presence of (gamma-33P)-ATP by scintillation counting analysis relative to control
T1 sequence (whole entry): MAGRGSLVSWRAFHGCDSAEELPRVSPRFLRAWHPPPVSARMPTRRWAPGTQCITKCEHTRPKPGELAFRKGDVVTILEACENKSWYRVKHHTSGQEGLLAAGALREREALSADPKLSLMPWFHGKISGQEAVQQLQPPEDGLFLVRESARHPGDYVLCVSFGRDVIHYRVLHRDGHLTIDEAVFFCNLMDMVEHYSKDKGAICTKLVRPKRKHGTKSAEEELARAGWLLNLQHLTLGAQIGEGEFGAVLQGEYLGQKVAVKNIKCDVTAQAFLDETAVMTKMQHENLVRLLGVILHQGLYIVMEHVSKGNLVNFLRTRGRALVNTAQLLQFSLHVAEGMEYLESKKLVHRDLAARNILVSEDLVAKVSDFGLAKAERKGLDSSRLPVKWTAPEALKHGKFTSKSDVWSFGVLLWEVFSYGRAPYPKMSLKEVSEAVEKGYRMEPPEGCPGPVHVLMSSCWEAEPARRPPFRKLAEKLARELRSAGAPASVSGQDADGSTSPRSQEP

[4] = target: Platelet-derived growth factor receptor beta (Homo sapiens) (UniProt P09619); assay: Inhibition of human PDGFRbeta at 1 uM measured after 40 mins in presence of (gamma-33P)-ATP by scintillation counting analysis relative to control
[5] = target: Actin-related protein 2 (Homo sapiens) (UniProt P61160); assay: Inhibition of human ACTR2 at 1 uM measured after 40 mins in presence of (gamma-33P)-ATP by scintillation counting analysis relative to control

| Structure (SMILES) | inhibition [1] | inhibition [2] | inhibition [3] | inhibition [4] | inhibition [5] |
| --- | --- | --- | --- | --- | --- |
| COCOc1ccc(-c2cn(C)c3cc(NC(=O)c4ccc(C)c(C#Cc5ccnc6[nH]ncc56)c4)ccc23)cc1 | 92% | – | – | – | – |
| COc1ccc(-c2cn(C)c3cc(NC(=O)c4ccc(C)c(Nc5nccc(-c6ccc(OC7CC7)cc6)n5)c4)ccc23)cn1 | 11% | 20% | 20% | 20% | 20% |
